Data on 3 compounds can be found in patent US11318134B2, “Benzamide compounds” (priority 2018, dated 2022).

Amino acid sequences for entries named in this document (tags omitted).
UniProt P10415, whole entry: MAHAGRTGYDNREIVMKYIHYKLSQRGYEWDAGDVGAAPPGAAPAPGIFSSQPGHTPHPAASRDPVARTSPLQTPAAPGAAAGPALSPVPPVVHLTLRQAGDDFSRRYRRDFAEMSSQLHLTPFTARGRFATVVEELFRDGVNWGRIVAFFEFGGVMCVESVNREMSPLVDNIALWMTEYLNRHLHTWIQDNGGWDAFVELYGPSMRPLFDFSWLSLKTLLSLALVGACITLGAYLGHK

Assay [1] addresses T1, Bcl-2 (Homo sapiens (Human), UniProt P10415). As to the kind of experiment: Bcl-2 protein family binding assay (Bcl2scan platform), Bcl-2. The note with it: BIM peptide ligand, 11-point dilution, read-out: Bc1-2 Kd (nm). The procedure: E. coli were grown to log-phase and infected with T7 phage from a frozen stock (multiplicity of infection=0.4) and incubated with shaking at 32° C. until lysis (90-150 minutes). The lysates were centrifuged (5,000×g) and filtered (0.2 μm) to remove cell debris. […] The liganded beads were blocked with excess biotin and washed with blocking buffer (SeaBlock (Pierce), 1% BSA, 0.05% Tween 20, 1 mM DTT) to remove unbound ligand and to reduce non-specific phage binding. […] Test compounds were prepared as 100× stocks in 100% DMSO. Kds were determined using an 11-point 3-fold compound dilution series with one DMSO control point. […] The compounds were then diluted directly into the assays such that the final concentration of DMSO was 0.9%. All reactions performed in polypropylene 384-well plates. Each was a final volume of 0.02 ml. […] The BCL2 concentration in the eluates was measured by qPCR. Binding constants (Kds) were calculated with a standard dose-response curve using the Hill equation:
[formula] The Hill Slope was set to −1. Curves were fitted using a non-linear least square fit with the Levenberg-Marquardt algorithm.

Assay [2] deals with T1, Bcl-2. In words: Bcl-2 HTRF assay (FAM-Bak peptide). It counts as binding. To be noted: 4 nM Bcl-2, 100 nM FAM-Bak peptide, read-out: Bc1-2 IC50. (In general: TR-FRET usually uses a lanthanide donor and a delayed reading to cut background.)
The subject of assay [3] is HIV-1 infected primary CD4 T cells. The note with it: HIV-1 vs mock infected, IncuCyte Caspase 3/7, FIG. 5.

As for `CC1(C)CCC(c2ccc(Cl)cc2)=C(CN2CCN(c3ccc(C(=O)NS(=O)(=O)c4ccc(N[C@H](CCN5CCOCC5)CSc5ccccc5)c(S(=O)(=O)C(F)(F)F)c4)cc3)CC2)C1` [ABT-263, reference compound], on Bcl-2 [1], the Kd was 10 to 100 nM. For the same compound, on Bcl-2 [2], the half-inhibitory concentration (IC50) is at most 10 nM.

`CC1(C)CCC(CN2CCN(c3ccc(C(=O)NS(=O)(=O)c4ccc(NC[C@H]5CC[C@](C)(O)CC5)c([N+](=O)[O-])c4)c(Oc4cnc5[nH]ccc5c4)c3)CC2)=C(C23CC(C(F)F)(C2)C3)C1` [Example 34, 2-((1H-pyrrolo[2,3-b]pyridin-5-yl)oxy)-4-(4-((2-(3-(difluoromethyl)bicyclo[1.1.1]pentan-1l-yl)-4,4-dimethylcyclohex-1-en-1-yl)methyl)piperazin-1-yl)-N-((4-((((1r,4r)-4-hydroxy-4-methylcyclohexyl)methyl)amino)-3-nitrophenyl)sulfonyl)benzamide]: the “selectivity in killing HIV vs. mock infected cells” value in assay [3] was “exhibit selectivity in killing HIV vs. mock infected cells”.

As for `CC1(C)CCC(CN2CCN(c3ccc(C(=O)NS(=O)(=O)c4ccc(OCC5(F)CCOCC5)c([N+](=O)[O-])c4)c(Oc4cnc5[nH]ccc5c4)c3)CC2)=C(C23CC(C(F)F)(C2)C3)C1` [Example 36, 2-((1H-pyrrolo[2,3-b]pyridin-5-yl)oxy)-4-(4-((2-(3-(difluoromethyl)bicyclo[1.1.1]pentan-1-yl)-4,4-dimethylcyclohex-1-en-1-yl)methyl)piperazin-1-yl)-N-((4-((4-fluorotetrahydro-2H-pyran-4-yl)methoxy)-3-nitrophenyl)sulfonyl)benzamide], in assay [3], the “selectivity in killing HIV vs. mock infected cells” value is recorded as “exhibit selectivity in killing HIV vs. mock infected cells”.

One may read the Kd as the concentration at which binding is half-saturated. In general, IC50 refers to the concentration that inhibits the measured activity by half.
